The results in this text go back to patent US8618303B2, “Pyrrolidine derivatives” (Hoffmann-La Roche Inc., priority 2011, dated 2013).

By UniProt entry, the sequences of proteins in these tests, tags left out.
UniProt P29371, whole entry: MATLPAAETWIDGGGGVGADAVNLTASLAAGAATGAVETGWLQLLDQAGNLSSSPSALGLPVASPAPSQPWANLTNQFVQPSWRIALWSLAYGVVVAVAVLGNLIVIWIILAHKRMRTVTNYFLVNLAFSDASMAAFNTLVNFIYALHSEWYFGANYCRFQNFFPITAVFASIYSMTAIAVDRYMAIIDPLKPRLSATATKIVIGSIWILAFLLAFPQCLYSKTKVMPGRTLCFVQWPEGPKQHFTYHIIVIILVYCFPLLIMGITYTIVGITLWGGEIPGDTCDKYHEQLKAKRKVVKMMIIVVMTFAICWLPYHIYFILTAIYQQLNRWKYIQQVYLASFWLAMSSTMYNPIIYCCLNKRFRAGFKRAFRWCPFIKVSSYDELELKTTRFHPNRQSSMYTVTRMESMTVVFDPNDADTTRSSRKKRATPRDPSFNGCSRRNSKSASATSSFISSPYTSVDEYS

What is called Ki is a measure of affinity in units of concentration, obtained from inhibition or displacement.

Structures are written as SMILES.

In the experiment the target is human NK3 receptor (Homo sapiens (Human), UniProt P29371). The experiment is described as follows: [3H]SR142801 competition binding assay. The conditions noted are these: read-out: Ki (uM) hNK3, membranes from HEK293 cells transiently expressing recombinant human NK3 receptor, Ki from IC50 by Cheng-Prussoff. As to the method:
hNK3 receptor binding experiment were performed using [^3H]SR142801 (Catalog No. TRK1035, specific activity: 74.0 Ci/mmol, Amersham, GE Healthcare UK limited, Buckinghamshire, UK) and membrane isolated from HEK293 cells transiently expressing recombinant human NK3 receptor. After thawing, the membrane homogenates were centrifuged at 48,000×g for 10 min at 4° C., the pellets were resuspended in the 50 mM Tris-HCl, 4 mM MnCl2, 1 μM phosphoramidon, 0.1% BSA binding buffer at pH 7.4 to a final assay concentration of 5 μg protein/well. For inhibition experiments, membranes were incubated with [^3H]SR142801 at a concentration equal to KD value of radioligand and 10 concentrations of the inhibitory compound (0.0003-10 μM) (in a total reaction volume of 500 μl) for 75 min at room temperature (RT). […] Nonspecific binding was measured in the presence of 10μM SB222200 for both radioligands. The radioactivity on the filter was counted (5 min) on a Packard Top-count microplate scintillation counter with quenching correction after addition of 45 μl of microscint 40 (Canberra Packard S.A., Ziirich, Switzerland) and shaking for 1 h. […]

`CN(C(=O)Oc1ccc(F)cc1)[C@@H]1CN(C(=O)C2CCN(c3ccc(C#N)nc3)CC2)C[C@@]1(C)c1ccc(Cl)cc1` (relative stereo): the Ki was found to be 0.0029 µM.
